Test results published in ChEMBL document CHEMBL1145166, “Dipeptides as effective prodrugs of the unnatural amino acid (+)-2-aminobicyclo[3.1.0]hexane-2,6-dicarboxylic acid (LY354740), a selective group II metabotropic glutamate receptor agonist” (J Med Chem, 2005).

By UniProt entry, the sequences of proteins in these tests, tags left out. Where a name states a change or a piece, a line headed by the entry shows the natural chain unless it says otherwise.
UniProt P31421: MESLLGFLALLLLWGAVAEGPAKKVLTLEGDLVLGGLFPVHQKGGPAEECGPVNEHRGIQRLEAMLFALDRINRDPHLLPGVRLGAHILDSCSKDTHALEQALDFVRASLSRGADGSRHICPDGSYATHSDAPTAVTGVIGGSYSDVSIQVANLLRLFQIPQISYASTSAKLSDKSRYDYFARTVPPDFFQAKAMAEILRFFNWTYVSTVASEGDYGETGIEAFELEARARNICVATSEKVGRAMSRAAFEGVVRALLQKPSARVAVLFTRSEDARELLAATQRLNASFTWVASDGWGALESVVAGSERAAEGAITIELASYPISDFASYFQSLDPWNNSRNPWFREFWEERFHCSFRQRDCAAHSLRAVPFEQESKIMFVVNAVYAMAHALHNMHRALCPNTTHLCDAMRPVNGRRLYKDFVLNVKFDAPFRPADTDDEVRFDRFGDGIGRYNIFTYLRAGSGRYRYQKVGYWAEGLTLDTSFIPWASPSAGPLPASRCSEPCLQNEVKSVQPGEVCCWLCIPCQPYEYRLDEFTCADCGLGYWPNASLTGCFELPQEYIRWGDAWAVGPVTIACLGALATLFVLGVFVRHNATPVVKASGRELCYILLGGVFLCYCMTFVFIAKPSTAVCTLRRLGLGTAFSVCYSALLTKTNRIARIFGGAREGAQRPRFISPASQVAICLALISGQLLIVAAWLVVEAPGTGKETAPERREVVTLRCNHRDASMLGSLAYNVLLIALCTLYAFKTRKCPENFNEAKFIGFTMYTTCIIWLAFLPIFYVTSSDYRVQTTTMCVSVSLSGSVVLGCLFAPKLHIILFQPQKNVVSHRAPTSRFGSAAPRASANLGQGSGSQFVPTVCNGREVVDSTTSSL

Molecular target: Metabotropic glutamate receptor 2 (Rattus norvegicus, UniProt P31421)
Test: Inhibition of [3H]LY-341,495 binding to mGlu2 receptors of rat brain
How it was run: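 Rat forebrain membranes (cortex, hippocampus, striatum; adult male Sprague-Dawley). Washed tissue (0.015–0.020 mg protein) incubated with 1 nM [³H]LY341495 and test compound up to 10 000 nM, in 10 mM potassium phosphate pH 7.6 + 100 mM KBr. Incubation on ice 30–45 min, then rapid filtration and scintillation counting. Nonspecific binding defined with 1 mM L-glutamate. Ki derived, N = 3.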

In the case of `N[C@@]1(C(=O)O)CC[C@H]2[C@H](C(=O)O)[C@H]21` [EGLUMETAD], the Ki is reported as 80 nM.
